Patent US20260124309A1, “STAT6 DEGRADERS AND USES THEREOF” (Kymera Therapeutics, Inc., priority 2023, published 2026)
pIC50: −log10 of the molar value.

By UniProt entry, the sequences of proteins in these tests, tags left out. Residues count along the entry.
UniProt P42226, whole entry: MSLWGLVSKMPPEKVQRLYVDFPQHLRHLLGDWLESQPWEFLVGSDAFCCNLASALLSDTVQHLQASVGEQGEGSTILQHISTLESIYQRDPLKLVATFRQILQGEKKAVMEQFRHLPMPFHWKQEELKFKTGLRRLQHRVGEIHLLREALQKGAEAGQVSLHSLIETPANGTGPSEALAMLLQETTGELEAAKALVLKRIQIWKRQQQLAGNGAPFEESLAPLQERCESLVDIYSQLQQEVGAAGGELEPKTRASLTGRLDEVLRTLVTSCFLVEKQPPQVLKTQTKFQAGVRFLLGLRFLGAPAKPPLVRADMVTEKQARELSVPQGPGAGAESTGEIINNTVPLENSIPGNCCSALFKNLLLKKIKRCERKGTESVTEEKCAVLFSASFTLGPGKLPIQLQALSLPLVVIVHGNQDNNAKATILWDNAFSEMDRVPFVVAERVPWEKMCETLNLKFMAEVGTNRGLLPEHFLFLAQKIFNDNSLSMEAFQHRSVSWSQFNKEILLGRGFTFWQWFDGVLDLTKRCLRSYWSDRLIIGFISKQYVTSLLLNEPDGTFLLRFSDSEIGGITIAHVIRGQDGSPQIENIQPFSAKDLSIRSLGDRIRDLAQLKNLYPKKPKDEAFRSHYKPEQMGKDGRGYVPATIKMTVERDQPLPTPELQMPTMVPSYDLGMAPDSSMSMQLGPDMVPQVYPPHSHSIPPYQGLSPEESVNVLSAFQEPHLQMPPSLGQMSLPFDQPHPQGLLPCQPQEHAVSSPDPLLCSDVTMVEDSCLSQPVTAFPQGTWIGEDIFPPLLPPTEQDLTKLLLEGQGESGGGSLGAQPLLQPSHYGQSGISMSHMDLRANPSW
UniProt P42226, 123-632 limits assumed: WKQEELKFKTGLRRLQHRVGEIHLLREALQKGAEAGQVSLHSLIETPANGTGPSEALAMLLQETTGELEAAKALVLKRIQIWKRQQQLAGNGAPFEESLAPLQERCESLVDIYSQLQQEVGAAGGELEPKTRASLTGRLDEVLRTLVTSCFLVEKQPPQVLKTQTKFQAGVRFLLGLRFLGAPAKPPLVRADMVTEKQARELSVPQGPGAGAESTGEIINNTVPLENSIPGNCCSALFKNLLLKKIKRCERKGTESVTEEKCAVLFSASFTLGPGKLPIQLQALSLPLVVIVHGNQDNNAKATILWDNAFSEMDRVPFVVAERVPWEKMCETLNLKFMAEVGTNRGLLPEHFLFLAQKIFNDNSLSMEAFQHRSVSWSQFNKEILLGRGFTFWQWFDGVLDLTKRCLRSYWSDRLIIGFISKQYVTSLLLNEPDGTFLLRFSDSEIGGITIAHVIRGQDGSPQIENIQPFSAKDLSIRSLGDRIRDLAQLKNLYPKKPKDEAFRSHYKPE

How the values were obtained:
STAT6-HiBiT = STAT6-HiBiT (Homo sapiens, UniProt P42226); test: STAT6 HiBiT degradation in A549 (STAT6-HiBiT) cells
Description: Degradation of STAT6 in endogenously tagged STAT6-HiBiT A549 cells was quantitatively measured using the Nano-Glo HiBiT Lytic Detection System (Promega, 3040). A549 (STAT6-HiBiT) cells were seeded in 384-well plates with a density of 1.25k cells per well in 20 μl fresh media. Compounds were then added to the assay plates using the Apricot S3 with a final top concentration of up to 10 uM in a 4-fold dilution series with total of 10 doses. The assay plates were then incubated for 24 hours at 37° C. under 5% CO2. At the assay endpoint, 20 μL of Nano-Glo HiBiT Lytic Reagent was added to each well and agitated on a plate shaker at 300 rpm for 10 minutes at room temperature. Luminescence was read on PHERAStar FSX Instrument (Is integration time). The data was analyzed by GraphPad Prism and the dose dependent STAT6 degradation was fit using the four-parameter inhibitor vs. response nonlinear regression.
The letter codes for DC50 (nM) include: A (<1 nM): B (1-10 nM); C (>10-100 nM); D (>100-1000 nM); E (>1000 nM); and F (not tested). The letter codes for Dmax (%) include: A (>90%); B (>70-90%); C (>50-70%); D (<50%); and E (not tested).

[1] = target: biotinylated truncated STAT6 (123-632)-avi (Homo sapiens, UniProt P42226); test: STAT6 HTRF binding assay; settings: read-out: STAT6 HTRF: Average IC50, 0.15 nM biotinylated truncated STAT6 (123-632)-avi, 20 nM fluorescein-labeled probe
Description: HTRF binding assays were performed using 0.15 nM biotinylated truncated STAT6 (123-632)-avi purified from E. coli, 1× Streptavidin-terbium (CisBio) prepared by mixing SA-Tb in PPI detection buffer (CisBio), 20 nM proprietary fluorescein-labeled probe, and test compounds in assay buffer consisting of 50 mM HEPES-Na pH 7.5, 100 mM NaCl, 1 mM EDTA, 2 mM DTT, 0.1% Tween-20 with a final volume of 20 uL. Compound stocks were dissolved at 10 mM in 100% DMSO and 11 point titration with 3 fold serial dilution was performed in white, opaque 384 well microplates. Reaction plates were incubated at room temperature for 30 minutes. Plates were centrifuged at low rpm for 5 mins, and the ratio of fluorescence intensities were measured at emission wavelengths for fluorescein acceptor (520 nm) and terbium donor (495 nm) on Envision Plate reader. % Inhibition was calculated from the 520/495 ratio generated by using proprietary positive control compound for 100% inhibition and DMSO only reactions for 0% inhibition. Data was processed and dose response curves were generated using GraphPad Prism to determine the concentration required for inhibiting 50% of the HTRF signal (IC50).
The letter codes for IC50 (μM) include: A (<0.1 μM); B (0.1-1 μM); C (>1-10 μM); D (>10-100 μM); E (>100 μM); and F (not tested).

## CN(C)C(=O)c1cc2c(-c3ccc(C4CCN(c5ccc(C6CCC(=O)NC6=O)cc5F)CC4)cc3F)cc(C3=CCCN(C(=O)CCn4ccnn4)C3)c(F)c2[nH]1 (single isomer, unassigned)
STAT6-HiBiT
  STAT6 HiBiT degradation Dmax % 24 h: A (A (>90%))
STAT6-HiBiT; read-out: STAT6 HiBiT degradation DC50 (nM) 24 h
  DC50: < 1 nM
[1]
  pIC50: > 7.00
